Target: Muscarinic acetylcholine receptor M3 (Homo sapiens, UniProt P20309)
Assay: M3 Receptor Affinity Test
Experimental: The experiment was performed by a radioisotope affinity assay. The M3 receptor membrane protein was prepared at 10 μg/mL by Biology Department of WuXi AppTec, and compounds were serially diluted in a 2.5-fold gradient in DMSO to obtain 10 concentrations. Radioisotope 3H-NMS was prepared at 0.2 nM in an assay buffer (10 mM HEPES, 1 mM MgCl2, p

Structure (SMILES)	IC50
O=C(OC1CCN(CCCn2nnc3cc(CNC[C@H](O)c4ccc(O)c5[nH]c(=O)ccc45)c4c(c32)CCC4)CC1)[C@](O)(c1cccs1)c1ccc(Br)s1	2.77 nM
O=C(OC1CCN(CCCn2nnc3cc(CNC[C@H](O)c4ccc(O)c5[nH]c(=O)ccc45)c4c(c32)CCC4)CC1)C(O)(c1cccs1)c1ccc(Br)s1 (some centres not stated)	4.16 nM
